Test results reported in ChEMBL document CHEMBL4433220, “Identification of the 2-Benzoxazol-2-yl-phenol Scaffold as New Hit for JMJD3 Inhibition” (ACS Med Chem Lett, 2019).

Tests used:
[1] = species on record: Homo sapiens; assay: Selectivity ratio of IC50 for recombinant human JMJD3 to IC50 for UTX (unknown origin)
[2] = tested on: A-375; assay: Antiproliferative activity against human A375 cells incubated for 24 hrs by propidium iodide staining based flow cytometric analysis; type: functional, cell-based

Ratio IC50 [1]: 21
Structure (SMILES): Oc1ccc(O)c(-c2nc3ccccc3o2)c1
Activity [2]: Dose-dependent effect
